Reference: PubChem BioAssay AID652147 (Johns Hopkins Ion Channel Center, 2013)
The list shows a part of the results, in another mix than the full data. The source made the active and inactive calls.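 The calls were made as follows: active = mean percent inhibition of duplicate wells above the buffer-only control mean plus 3 SD of those controls; inactive = the rest.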

molecular target: Potassium voltage-gated channel subfamily E member 1 (Homo sapiens) + Potassium voltage-gated channel subfamily KQT member 1 (Homo sapiens) (UniProt P15382+P51787); test: KCNQ1/KCNE1 channel inhibition, selectivity assay for KCNQ1 inhibitor project, CHO-K1 cells, thallium flux, FluxOR (AID 652147); conditions: FluxOR thallium flux fluorescence, at 10 µM, stronger effect = higher value;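 also: 0% = buffer only wells and 100% = XE-991 inhibitor control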
Method in brief: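 test system = KCNQ1/KCNE1 cells | schedule = 20 min compound pre-incubation at room temperature | detection = FluxOR thallium influx fluorescence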

Structure (SMILES)	inhibition
COc1cc(C(=O)NCC2(N3CCOCC3)CCCCC2)cc(Cl)c1OC(C)C	active: 63.5%
CCC1=CC2Cc3nc4ccc(Cl)cc4c(N)c3C(C1)C2 (configuration not stated)	active: 110%
